# Assay outcomes (PubChem BioAssay)
# GIV Gai3 FP – inhibitors of GIV GBA-motif binding to rat Galpha-i3; Galpha-i3/FITC-GIV peptide fluorescence polarization, 90 min; stronger effect = lower value; scaled: aluminum fluoride 0%, vehicle 100%; P08753; hit rate 0.42% among 210,000; percent of control (FP), % (concentration not given with the values);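 active = replicate mean at 85% of control or lower, very high polarization wells dropped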;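 note: wells of about 15 µL received 100 nL stock; the first replicate is given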
# HCMV NEC inh – inhibitors of HCMV UL50-UL53 nuclear egress complex interaction; HTRF UL50-UL53 interaction, normalized percent inhibition; inhibition, % (no concentration beside the values); hit rate 0.15% among 190,000; in the data active = inhibition above about 27%, passing the limit was not always enough
# Active calls of the source: *; . = not tested or not shown. Rows were chosen to be rich in hits. Some 0.46% of all compounds tested hit in one or more screens of this group.
(1) CCc1cccc2c1=NC(=O)C=2c1c(C)[nH]n(-c2ccccc2)c1=O
  GIV Gai3 FP: 104 | HCMV NEC inh: 1
(2) Cc1cccc(C)c1NC(=O)c1cc(-c2cccnc2)on1
  GIV Gai3 FP: 97 | HCMV NEC inh: -9
(3) Cc1ccc(NC(=O)Nc2ccc3c(c2)N(C)C(=O)CS3)cc1
  GIV Gai3 FP: 106 | HCMV NEC inh: .
(4) CN1C(=O)CSc2ccc(NC(=O)Nc3cccnc3)cc21
  GIV Gai3 FP: 101 | HCMV NEC inh: 35*
(5) CCOC(=O)C1=C(C)N=c2s/c(=C\c3ccc(O)c(Br)c3)c(=O)n2C1c1ccc(OC)cc1 (stereo not given)
  GIV Gai3 FP: 186 | HCMV NEC inh: -10
(6) CCOC(=O)C1=C(C)N=c2s/c(=C\c3ccc(O)c(Br)c3)c(=O)n2C1c1ccc(OC)c(OC)c1 (stereo not given)
  GIV Gai3 FP: 71* | HCMV NEC inh: -12
(7) CC(=O)Nc1ccc(SCc2nc3ccccc3c(=O)n2CC#N)cc1
  GIV Gai3 FP: . | HCMV NEC inh: 5
(8) COc1ccc(CCN(C)c2nc(N)c3c(N)nc(SCC(=O)O)cc3c2C#N)cc1OC
  GIV Gai3 FP: . | HCMV NEC inh: 82*
(9) COc1cc2c(C#N)c(N(C)CCc3ccc(OC)c(OC)c3)nc(N)c2c(N)n1
  GIV Gai3 FP: . | HCMV NEC inh: -11
(10) Cc1cccc(NC2=NCC(=O)N2Cc2ccccc2)c1
  GIV Gai3 FP: 102 | HCMV NEC inh: 59*
(11) O=C1CN=C(Nc2ccccc2Cl)N1Cc1ccccc1
  GIV Gai3 FP: 102 | HCMV NEC inh: 15
(12) O=C(COc1ccc(-n2cnnn2)cc1)NCC(F)(F)F
  GIV Gai3 FP: . | HCMV NEC inh: -27
(13) Cn1nc(-c2nc(-c3ccccc3)no2)c2c1CCN(S(=O)(=O)c1ccc3c(c1)CCC3)C2
  GIV Gai3 FP: 101 | HCMV NEC inh: .
(14) Cc1ccc(NC(=O)CSc2ncc3c(n2)-c2ccc(Cl)cc2N(C)S3(=O)=O)cc1F
  GIV Gai3 FP: 103 | HCMV NEC inh: .
(15) CN1c2cc(Cl)ccc2-c2nc(SCC(=O)Nc3nccs3)ncc2S1(=O)=O
  GIV Gai3 FP: 107 | HCMV NEC inh: 36*

# Entries of single compounds, quoted from the list.
# Cn1nc(-c2nc(-c3ccccc3)no2)c2c1CCN(S(=O)(=O)c1ccc3c(c1)CCC3)C2 is listed with GIV Gai3 FP = 101; HCMV NEC inh = .
# COc1ccc(CCN(C)c2nc(N)c3c(N)nc(SCC(=O)O)cc3c2C#N)cc1OC is listed with GIV Gai3 FP = .; HCMV NEC inh = 82*

# Carrying on.
(16) CN1c2cc(Cl)ccc2-c2nc(SCC(=O)Nc3cc(F)ccc3F)ncc2S1(=O)=O
  GIV Gai3 FP: 110 | HCMV NEC inh: 78*
(17) CN1c2cc(Cl)ccc2-c2nc(SCC(=O)Nc3ccc(F)cc3F)ncc2S1(=O)=O
  GIV Gai3 FP: 104 | HCMV NEC inh: .
(18) Cc1ccc(CNC2=NCCNC23CCCCC3)cc1
  GIV Gai3 FP: 98 | HCMV NEC inh: .
(19) O=C(CCc1nc(CSc2nc3ccccc3s2)no1)Nc1cc(F)cc(F)c1
  GIV Gai3 FP: 105 | HCMV NEC inh: .
(20) COc1ccc(N=Cc2sc3ccccc3c2Cl)cc1
  GIV Gai3 FP: . | HCMV NEC inh: 27
(21) COc1ccccc1N=Cc1sc2ccccc2c1O
  GIV Gai3 FP: -53* | HCMV NEC inh: -33
(22) CCOc1ccc(N=Cc2sc3ccccc3c2O)cc1
  GIV Gai3 FP: -15* | HCMV NEC inh: -24
(23) Cc1ccccc1N=Cc1sc2ccccc2c1O
  GIV Gai3 FP: 157 | HCMV NEC inh: -15
(24) COc1ccc(NC(=O)CCNc2c(N3CCCC3)c(=O)c2=O)cc1
  GIV Gai3 FP: 105 | HCMV NEC inh: 12
(25) O=C(NCc1ccco1)c1ccc2c(c1)CCN2S(=O)(=O)c1ccccc1
  GIV Gai3 FP: 102 | HCMV NEC inh: -14
(26) O=c1oc2ccc3ccccc3c2cc1-c1nc(-c2cccs2)cs1
  GIV Gai3 FP: 116 | HCMV NEC inh: .
(27) COc1cccc2cc(-c3nnc(NC4CCCCC4)s3)c(=O)oc12
  GIV Gai3 FP: 113 | HCMV NEC inh: .
(28) Cc1ccc(-c2csc(-c3cc4ccccc4oc3=O)n2)cc1C
  GIV Gai3 FP: 111 | HCMV NEC inh: .
(29) O=c1oc2cc(O)ccc2cc1-c1nc(-c2ccc3ccccc3c2)cs1
  GIV Gai3 FP: -29* | HCMV NEC inh: .
(30) O=c1oc2cc(O)ccc2cc1-c1nnc(NC2CCCCC2)s1
  GIV Gai3 FP: -31* | HCMV NEC inh: .

(31) O=c1oc2ccccc2cc1-c1nc(-c2cccs2)cs1
  GIV Gai3 FP: 11* | HCMV NEC inh: .
(32) CCOc1ccc(C(=O)Nc2ccc3c(c2)CCCN3C(C)=O)cc1OCC
  GIV Gai3 FP: 100 | HCMV NEC inh: 0
(33) CCC(=O)Nc1ccc(S(=O)(=O)N2CCC[C@@H]2C(=O)NCCc2csc(C)n2)cc1
  GIV Gai3 FP: 99 | HCMV NEC inh: .
(34) CCn1nc(C)c(CNC(=O)NCc2ccccc2)c1C
  GIV Gai3 FP: 107 | HCMV NEC inh: -6
(35) O=C(Cn1ccn2nc(-c3ccc4c(c3)OCO4)cc2c1=O)Nc1ccc(F)c(F)c1
  GIV Gai3 FP: 102 | HCMV NEC inh: -19
(36) O=C(Oc1ccccc1OC(=O)c1ccccc1)c1ccccc1
  GIV Gai3 FP: 100 | HCMV NEC inh: .
(37) O=C(Oc1cccc2c1C(=O)C=CC2=O)c1ccccc1
  GIV Gai3 FP: 104 | HCMV NEC inh: 65*
(38) O=C1CN(c2ccccc2)C(=Nc2ccccc2)S1
  GIV Gai3 FP: 97 | HCMV NEC inh: 7
(39) c1ccc(N=c2[n-][n+](-c3ccccc3)cn2-c2ccccc2)cc1
  GIV Gai3 FP: . | HCMV NEC inh: 55*
(40) O=C(CSc1nc2c(sc3ncccc32)c(=O)n1Cc1ccccc1)Nc1ccc(F)c(F)c1
  GIV Gai3 FP: 102 | HCMV NEC inh: 68*
(41) O=C(Cn1cnc2c(sc3ncccc32)c1=O)Nc1ccc(F)c(F)c1
  GIV Gai3 FP: 104 | HCMV NEC inh: .
(42) CCOC(=O)CSc1nc2c(sc3ccccc32)c(=O)n1Cc1ccc(C)cc1
  GIV Gai3 FP: 105 | HCMV NEC inh: .
(43) CC(C)CSc1nc2c(sc3ncccc32)c(=O)n1Cc1ccccc1
  GIV Gai3 FP: 103 | HCMV NEC inh: 62*
(44) COc1ccc(Cn2c(SCC(=O)Nc3cccc(Cl)c3)nc3ncccc3c2=O)cc1
  GIV Gai3 FP: 105 | HCMV NEC inh: 2
(45) O=C(CSc1nc2c(sc3ncccc32)c(=O)n1Cc1ccc(F)cc1)Nc1ccc(F)c(F)c1
  GIV Gai3 FP: 101 | HCMV NEC inh: 64*

# Reprinted at random: two entries already listed, in no set order.
(42) CCOC(=O)CSc1nc2c(sc3ccccc32)c(=O)n1Cc1ccc(C)cc1
  GIV Gai3 FP: 105 | HCMV NEC inh: .
(39) c1ccc(N=c2[n-][n+](-c3ccccc3)cn2-c2ccccc2)cc1
  GIV Gai3 FP: . | HCMV NEC inh: 55*

# Additional compounds.
(46) Cc1ccc(CN2CCN(C3CCN(C(=O)NC(C)C)CC3)C(=O)C2=O)cc1
  GIV Gai3 FP: 106 | HCMV NEC inh: .
(47) COc1ccc(OC)c(C2C(N3C(=O)c4c(Cl)c(Cl)c(Cl)c(Cl)c4C3=O)C(=O)N2c2cccc(C(F)(F)F)c2)c1 (stereo not given)
  GIV Gai3 FP: 109 | HCMV NEC inh: .
(48) COc1ccc(NC(=O)NCCn2nnc3cc(S(=O)(=O)N4CCCC4)ccc32)cc1OC
  GIV Gai3 FP: 107 | HCMV NEC inh: 28
(49) Cc1[nH]c2ccccc2c1/C=C(\C#N)C(=O)NCc1ccco1
  GIV Gai3 FP: 100 | HCMV NEC inh: -21
(50) Cc1ccc(CSc2nc(-c3cccs3)ccc2C#N)cc1
  GIV Gai3 FP: 103 | HCMV NEC inh: -30
(51) Cc1ccc(CSc2nc(C(=O)O)ccc2C#N)cc1
  GIV Gai3 FP: . | HCMV NEC inh: 54*
(52) CC1=CS/C(=C(/C#N)C(N)=O)N1c1ccccc1
  GIV Gai3 FP: 104 | HCMV NEC inh: -11
(53) N#C/C(C(=O)c1ccccc1)=C1/SC=C(N)N1c1ccccc1
  GIV Gai3 FP: -51* | HCMV NEC inh: -26
(54) CC1CCN(c2ccc(N3CCN(S(C)(=O)=O)CC3)nn2)CC1
  GIV Gai3 FP: 105 | HCMV NEC inh: -42
(55) CCc1ccccc1N1C(=O)NC(=O)/C(=C\c2ccc(N(CC)CC)o2)C1=O
  GIV Gai3 FP: -59* | HCMV NEC inh: -74
(56) CCOc1ccc(N2C(=O)NC(=O)/C(=C\c3ccc(Br)o3)C2=O)cc1
  GIV Gai3 FP: 131 | HCMV NEC inh: .
(57) COC(=O)c1ccc(Nc2nc(C)c3nc(C)n(-c4ccc(C(=O)OC)cc4)c3n2)cc1
  GIV Gai3 FP: 103 | HCMV NEC inh: -32
(58) CCCCCCc1cc2cc(-c3nnc(-c4cccc(Cl)c4)o3)c(=O)oc2cc1O
  GIV Gai3 FP: 7.6* | HCMV NEC inh: -49
(59) O=c1oc2ccccc2cc1-c1nnc(-c2cccc(Cl)c2)o1
  GIV Gai3 FP: 101 | HCMV NEC inh: 5
(60) COc1cc(-c2nc3ccccc3c(=O)n2NC(=O)COc2ccc(Cl)cc2Cl)cc(OC)c1OC
  GIV Gai3 FP: 103 | HCMV NEC inh: -31

(61) O=C(CSc1ccc2nnc(-c3ccccc3)n2n1)NC1CCCC1
  GIV Gai3 FP: 102 | HCMV NEC inh: 34*
(62) NC(=O)CSc1ccc2nnc(-c3ccccc3)n2n1
  GIV Gai3 FP: . | HCMV NEC inh: -10
(63) O=C(CSc1nnc2sc3ccccc3n12)Nc1ccccc1F
  GIV Gai3 FP: 104 | HCMV NEC inh: -6
(64) COc1ccc(/C(O)=C(/C#N)c2nc3ccccc3s2)cc1
  GIV Gai3 FP: . | HCMV NEC inh: -10
(65) COc1ccc(N2CCN(/C=C(\C#N)c3nc4ccccc4s3)CC2)cc1
  GIV Gai3 FP: -61* | HCMV NEC inh: 5
(66) Cc1ccc(OCC(=O)Nc2noc(-c3ccccc3)n2)cc1
  GIV Gai3 FP: 97 | HCMV NEC inh: 14
(67) Cc1cccn2c(=O)c(/C=C3\SC(=S)N(CCCC(=O)O)C3=O)c(NCCc3ccccc3)nc12
  GIV Gai3 FP: 132 | HCMV NEC inh: .
(68) COCCCN1C(=O)/C(=C\c2c(N3CC(C)OC(C)C3)nc3c(C)cccn3c2=O)SC1=S (stereo not given)
  GIV Gai3 FP: 208 | HCMV NEC inh: .
(69) Cc1cccn2c(=O)c(/C=C3\SC(=S)N(CCCC(=O)O)C3=O)c(N3CCCCC3)nc12
  GIV Gai3 FP: 40* | HCMV NEC inh: .
(70) Cc1cccn2c(=O)c(/C=C3\SC(=S)N(C)C3=O)c(N3CCCC3)nc12
  GIV Gai3 FP: -36* | HCMV NEC inh: .
(71) COc1cc(/C=C(\C#N)C(=O)C(C)(C)C)ccc1O
  GIV Gai3 FP: . | HCMV NEC inh: -73
(72) COc1cc(/C=C(\C#N)C(=O)c2ccc(O)c(O)c2)cc(I)c1O
  GIV Gai3 FP: -31* | HCMV NEC inh: -122
(73) CC1(C(=O)NCc2ccccc2)CCCN(S(=O)(=O)c2ccc(F)c(Cl)c2)C1 (stereo not given)
  GIV Gai3 FP: 108 | HCMV NEC inh: .
(74) C/C(=C/C(=O)C(F)(F)F)N1CCN(S(=O)(=O)/C=C/c2ccccc2)CC1
  GIV Gai3 FP: . | HCMV NEC inh: -15
(75) S=c1nc(-c2ccccc2)[nH]c2c1Cc1ccccc1O2
  GIV Gai3 FP: 102 | HCMV NEC inh: .
